Test results taken from PMC6113202.

System: Scram (DNA, duplex) GTCGTTCTGATCCAGGTGATGTAGTCGACG/CGTCGACTACATCACCTGGATCAGAACGAC
Experiment: fluorescence turn-on
Settings: KCl 150 mM in p53 buffer (80% v/v); NaCl 50 mM in DNA buffer (15% v/v); NaPi pH 7.2, DTT, Tris-HCl, 5% DMSO; room temperature; dye 100 nM

Compound: N#C/C(=C\c1ccc2ccc3cccc4ccc1c2c34)C(=O)O
- binding: weak
